The list is not random: actives were taken first. Their share in the collection is about 0.43%.
HCMV NEC inh – inhibitors of HCMV UL50-UL53 interaction, biochemical, HTRF; normalized percent inhibition; hit rate 0.15% among 190,000; inhibition, % (no concentration beside the values); in the data active means inhibition above about 27%, passing the limit was not always enough
GIV Gai3 FP – inhibitors of GIV peptide binding to Galpha-i3, primary screen, biochemical, fluorescence polarization, FITC-GIV GBA peptide, rat Galphai3 | 90 min; hits give low values; scaled: aluminum fluoride 0%, vehicle 100% | percent of control (FP), % (concentration not given with the values) | 210,000 compounds, 0.42% hits | AID 1224905, 2016;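 active = replicate mean at 85% of control or lower, very high polarization wells dropped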;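 also: wells of about 15 µL received 100 nL stock; the first replicate is given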
GIV-Gai FP conf – inhibitors of GIV peptide binding to Galpha-i3, confirmation, biochemical, fluorescence polarization, FITC-GIV peptide, rat Galphai3; shares compounds with GIV Gai3 FP; active compounds read low; fluorescence polarization, mP at 100 µM; hit rate 38% among 580; AID 1259350, 2017;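 active means inhibition score of 15 or more, meaning 100 minus mean polarization as percent of control over three replicates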;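 further: lower mP means peptide displaced from Galphai3 so more inhibition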
GIV Gai AS conf – inhibitors of GIV binding to Galpha-i3, confirmation, orthogonal assay for GIV-Galpha-i inhibitor project, biochemical, AlphaScreen, His-GIV, GST-Galphai3. shares compounds with GIV Gai3 FP. purified proteins, 90 min; active compounds read low. AlphaScreen counts at 100 µM. hit rate 39% among 580. AID 1259351, 2017;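 active means inhibition score at or above a set limit, where the score is 100 minus the three-replicate mean percent of control signal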
Large screens that a line does not name were inactive (follow-up assays come after a bar, where they were run).

Cc1ccc2c(Sc3ccc(Cl)cc3)c(C(=O)NC(C)C)[nH]c2c1	GIV Gai3 FP 57 | GIV-Gai FP conf inactive | GIV Gai AS conf inactive
CCC(C)NC(=O)c1[nH]c2cc(C)ccc2c1Sc1ccc(Cl)cc1 (stereo unspecified)	none
COc1ccc(C2C3=C(CC(C)(C)CC3=O)Nc3c(C(=O)Nc4ccc(C)cc4)cnn32)cc1 (stereo unspecified)	none
COC(OC)c1ccc(C#N)c(SCC#N)n1	none
COCCn1c(C)cc(C=C2C(=O)N(C)C(=S)N(C)C2=O)c1C	none (no result: HCMV NEC inh) | GIV-Gai FP conf inactive | GIV Gai AS conf 21525
COCCn1c(C)cc(C=C2C(=O)NC(=O)NC2=O)c1C	none
CCOc1cc(/C=c2\sc3nc4c(C)c(C)ccc4n3c2=O)cc(Cl)c1O	none (no result: GIV Gai3 FP)
CCOC(=O)c1ccc(-c2ccc(/C=c3/sc4nc5c(C)c(C)ccc5n4c3=O)o2)cc1	GIV Gai3 FP 79 (no result: HCMV NEC inh) | GIV-Gai FP conf inactive | GIV Gai AS conf inactive
O=C(Nc1ccc(F)cc1F)c1nnc(C2CCN(S(=O)(=O)c3ccc(F)cc3)CC2)s1	none (no result: HCMV NEC inh)
O=C(NCc1ccc(Br)cc1)C1CCCN(c2ncc(-c3ccc(F)cc3)cn2)C1 (stereo unspecified)	none (no result: HCMV NEC inh)
Cc1ccsc1-c1nc(-c2cc3c(C)nn(-c4ccccc4)c3s2)no1	GIV Gai3 FP 41 | GIV-Gai FP conf inactive | GIV Gai AS conf inactive
Cc1nc(C)c(-c2nc(-c3cc4c(C)nn(-c5ccccc5)c4s3)no2)s1	none
FC(F)(F)c1ccnc(NCCN=Cc2ccccc2)n1	none
COc1ccc(-c2nc(-c3ccc4c(c3)[nH]c(=O)c(=O)n4C)no2)cc1	none
COc1ccc(-c2nc(-c3ccc4c(c3)[nH]c(=O)c(=O)n4C)no2)cc1OC	none | GIV-Gai FP conf inactive | GIV Gai AS conf inactive
O=C(c1ccccc1)c1nc2c(ccc3ccccc32)o1	none (no result: GIV Gai3 FP)
COc1cc(/C=C2\SC(=O)N(C)C2=O)ccc1Oc1ccc([N+](=O)[O-])cc1[N+](=O)[O-]	none
COc1ccc(C=C2C(=O)NC(=O)NC2=O)cc1Oc1ccc([N+](=O)[O-])cc1[N+](=O)[O-]	HCMV NEC inh 51 | GIV-Gai FP conf inactive | GIV Gai AS conf 15324
Nc1c(C(=O)Nc2ccccn2)sc2nc(-c3cccs3)cc(C(F)(F)F)c12	GIV Gai3 FP 43 (no result: HCMV NEC inh) | GIV-Gai FP conf inactive | GIV Gai AS conf inactive
Cc1cccc(NC(=O)c2sc3nc(-c4cccs4)cc(C(F)(F)F)c3c2N)n1	none (no result: HCMV NEC inh)
CCC(=O)N1c2ccc(Cl)cc2C2C=CCC2C1c1cccc2ccccc12 (stereo unspecified)	none
COC(=O)Cc1c(C)c2cc3c(c(C)c2oc1=O)OCN(CCc1ccc(OC)cc1)C3	none
CCc1c(C)c2cc3c(c(C)c2oc1=O)OCN(CCc1ccc(OC)c(OC)c1)C3	GIV Gai3 FP 83 | GIV-Gai FP conf inactive | GIV Gai AS conf 14061
CC(CCc1ccccc1)NC(=O)CN1C(=O)CC(c2ccc(F)cc2)=Nc2ccccc21 (stereo unspecified)	none
Cc1c(/C=N/N=c2\sc3ccccc3n2C)n(C)n(-c2ccccc2)c1=O	none (no result: GIV Gai3 FP)
CN(C)c1ccc(/C=C/C=N/N=c2/sc3ccccc3n2C)cc1	none | GIV-Gai FP conf inactive | GIV Gai AS conf inactive
NS(=O)(=O)c1ccc(Cl)c(Cl)c1	none
CCN1CCN(c2ccc(N=Cc3cc(I)ccc3O)cc2)CC1	GIV Gai3 FP 28 | GIV-Gai FP conf inactive | GIV Gai AS conf inactive
Oc1ccc(C=Nc2ccc(N3CCOCC3)cc2)cc1O	none (no result: GIV Gai3 FP)
COC(=O)c1ccc(CC#N)o1	none
C=CCN(CC=C)Cc1ccc(C(=O)OC)o1	GIV Gai3 FP 80 | GIV-Gai FP conf inactive | GIV Gai AS conf inactive
CCN(CC)CCNc1c2c(nc3cc(-c4ccc(OC)c(OC)c4)nn13)CCC2	none
CC(=O)Nc1ccc(-n2c(C)ccc2C)c(C(=O)O)c1	none (no result: GIV Gai3 FP)
CCCOc1ccc(Cl)cc1C(=O)O	none
Cc1ccc(C)n1-c1ccccc1C(=O)O	GIV Gai3 FP 5.7 | GIV-Gai FP conf 11 | GIV Gai AS conf 1962
Cc1ccc(C)n1-c1cc(Cl)ccc1C(=O)O	HCMV NEC inh 80, GIV Gai3 FP 60 | GIV-Gai FP conf 59 | GIV Gai AS conf 2339
O=c1cc(CNc2ccc(F)cc2)nc2nc(-c3ccc(F)cc3)[nH]n12	none
CCn1c2ccccc2c2cc(C#N)ccc21	none
COC(=O)c1ccc(-c2nnc(-c3ccc(N(C)C)cc3)o2)cc1	none (no result: GIV Gai3 FP)
COC(=O)c1ccc(-c2ncc(-c3ccc(N(C)C)cc3)o2)cc1	none | GIV-Gai FP conf inactive | GIV Gai AS conf inactive
CCC(C(=O)NC)N1CCN(Cc2ccc(F)cc2)C(=O)C1=O (stereo unspecified)	none
COC(=O)c1c(N)c(C#N)c2n1CCC2	GIV Gai3 FP 80 (no result: HCMV NEC inh) | GIV-Gai FP conf 49 | GIV Gai AS conf 20250
COC(=O)c1c(N)c(C#N)c2n1CCCC2	none
N#CCc1nn(-c2ccccc2)c(/N=C/c2cc(Cl)cc(Cl)c2O)c1C#N	none (no result: HCMV NEC inh)
COc1cccc(NCc2nnc(SCC(=O)c3ccc[nH]3)n2C2CCCCC2)c1	none (no result: GIV Gai3 FP)
C=CCN1C(=O)/C(=C/c2ccc(OCC#N)c(OC)c2)SC1=S	none
COC(=O)c1c(-c2ccc(Cl)cc2)noc1Nc1cccc(OC)c1	none (no result: HCMV NEC inh)
CN1/C(=C\C(=O)COC(=O)CCN2C(=O)C3CC=CCC3C2=O)C(C)(C)c2ccccc21 (stereo unspecified)	none (no result: GIV Gai3 FP)
CCOc1cc(C(c2c(C)[nH]n(-c3ccccc3)c2=O)c2c(C)[nH]n(-c3ccccc3)c2=O)ccc1OCc1ccccc1	GIV Gai3 FP 82 (no result: HCMV NEC inh) | GIV-Gai FP conf 58 | GIV Gai AS conf inactive
Cc1[nH]n(-c2ccccc2)c(=O)c1C(c1ccccc1OCc1ccccc1)c1c(C)[nH]n(-c2ccccc2)c1=O	none (no result: HCMV NEC inh)
CCOc1cc(C(c2c(C)[nH]n(-c3ccccc3)c2=O)c2c(C)[nH]n(-c3ccccc3)c2=O)ccc1OC	GIV Gai3 FP 70 (no result: HCMV NEC inh) | GIV-Gai FP conf inactive | GIV Gai AS conf 9976
CCOc1ccc(C(c2c(C)[nH]n(-c3ccccc3)c2=O)c2c(C)[nH]n(-c3ccccc3)c2=O)cc1OC	none
CC(Sc1nc2sc3c(c2c(=O)n1C)CCC3)C(=O)Nc1ccc(Cl)cn1 (stereo unspecified)	none (no result: GIV Gai3 FP)
Cc1ccsc1CC1C(=O)Nc2ccc(Cl)cc21 (stereo unspecified)	none
CN(C)C(CNC(=O)c1cc(=O)c2cc(Br)ccc2o1)c1ccc(C(C)(C)C)cc1 (stereo unspecified)	none
Cc1nc2ccc(NC(=O)c3ccc(S(=O)(=O)N4CCCCC4)cc3)cc2s1	none
COc1ccccc1C(=O)ON1C(=O)c2ccccc2C1=O	none
O=C(NN1C(=O)c2ccccc2C1=O)c1ccccc1	none (no result: GIV Gai3 FP)
COc1cscc1C(=O)NC1(O)C(=O)c2ccccc2C1=O	HCMV NEC inh 53, GIV Gai3 FP 64 | GIV-Gai FP conf inactive | GIV Gai AS conf inactive
O=C(NC1(O)C(=O)c2ccccc2C1=O)c1ccccc1	GIV Gai3 FP 52 (no result: HCMV NEC inh) | GIV-Gai FP conf 47 | GIV Gai AS conf inactive
O=C1CCC2CC1CCC2=O	none (no result: GIV Gai3 FP)
CCOC(=O)c1c(CSCCN(CC)CC)oc2ccc(OC)cc12	none

Screening data as filed in PubChem BioAssay.
